The test concerns the target Vascular endothelial growth factor receptor 2 (Homo sapiens, UniProt P35968).

Sequences of proteins named here, by UniProt entry; tags and fusion partners are left off.
UniProt P35968, whole entry: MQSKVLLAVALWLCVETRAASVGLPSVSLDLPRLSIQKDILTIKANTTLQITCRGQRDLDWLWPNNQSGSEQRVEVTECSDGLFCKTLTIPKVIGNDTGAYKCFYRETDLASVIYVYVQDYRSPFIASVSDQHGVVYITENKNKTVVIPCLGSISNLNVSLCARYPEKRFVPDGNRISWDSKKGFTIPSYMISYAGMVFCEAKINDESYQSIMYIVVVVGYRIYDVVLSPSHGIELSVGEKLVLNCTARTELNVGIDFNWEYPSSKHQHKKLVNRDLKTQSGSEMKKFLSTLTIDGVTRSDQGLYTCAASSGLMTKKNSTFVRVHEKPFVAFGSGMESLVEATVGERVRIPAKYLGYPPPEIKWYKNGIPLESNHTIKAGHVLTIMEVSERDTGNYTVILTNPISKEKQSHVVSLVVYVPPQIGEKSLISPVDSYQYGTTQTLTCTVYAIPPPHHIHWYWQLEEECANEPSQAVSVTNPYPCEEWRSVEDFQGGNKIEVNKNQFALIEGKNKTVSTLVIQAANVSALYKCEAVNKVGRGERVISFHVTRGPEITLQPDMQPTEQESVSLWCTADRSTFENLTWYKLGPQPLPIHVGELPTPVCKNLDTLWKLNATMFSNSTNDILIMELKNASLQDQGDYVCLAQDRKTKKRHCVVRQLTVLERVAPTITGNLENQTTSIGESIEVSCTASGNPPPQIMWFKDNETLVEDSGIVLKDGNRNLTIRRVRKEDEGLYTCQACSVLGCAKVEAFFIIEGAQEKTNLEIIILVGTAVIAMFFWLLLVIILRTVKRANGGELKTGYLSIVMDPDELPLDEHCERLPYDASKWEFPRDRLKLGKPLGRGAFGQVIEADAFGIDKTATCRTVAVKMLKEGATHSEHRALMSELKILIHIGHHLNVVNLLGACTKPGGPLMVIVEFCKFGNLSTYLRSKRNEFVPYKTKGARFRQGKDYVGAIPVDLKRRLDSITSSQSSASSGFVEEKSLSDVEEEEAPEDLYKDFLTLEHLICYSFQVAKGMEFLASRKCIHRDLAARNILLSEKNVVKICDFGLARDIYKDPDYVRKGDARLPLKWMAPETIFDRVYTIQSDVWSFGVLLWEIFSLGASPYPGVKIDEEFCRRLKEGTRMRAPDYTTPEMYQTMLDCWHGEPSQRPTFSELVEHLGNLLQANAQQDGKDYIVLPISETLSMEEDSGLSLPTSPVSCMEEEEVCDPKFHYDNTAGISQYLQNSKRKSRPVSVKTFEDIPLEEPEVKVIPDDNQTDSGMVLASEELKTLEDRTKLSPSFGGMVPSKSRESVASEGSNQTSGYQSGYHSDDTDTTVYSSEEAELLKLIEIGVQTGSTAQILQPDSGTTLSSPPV

pIC50: −log10 of the molar value.

For orientation: pIC50 means −log10 of the IC50, conventionally taken in molar units. For the compound `Nc1c(C(=O)c2cc3ccccc3[nH]2)cnn1-c1ccc2[nH]ccc2c1`, the negative-log IC50 (pIC50) is 7.28.

The values above are taken from ChEMBL document CHEMBL3860107, “Discovery of [5-Amino-1-(2-methyl-3H-benzimidazol-5-yl)pyrazol-4-yl]-(1H-indol-2-yl)methanone (CH5183284/Debio 1347), An Orally Available and Selective Fibroblast Growth Factor Receptor (FGFR) Inhibitor” (J Med Chem, 2016).
